What all share (assay type): cell-based
Assay [1] addresses T1, NACHT, LRR and PYD domains-containing protein 4E (Mus musculus) (UniProt Q66X19).
T1 sequence (whole entry): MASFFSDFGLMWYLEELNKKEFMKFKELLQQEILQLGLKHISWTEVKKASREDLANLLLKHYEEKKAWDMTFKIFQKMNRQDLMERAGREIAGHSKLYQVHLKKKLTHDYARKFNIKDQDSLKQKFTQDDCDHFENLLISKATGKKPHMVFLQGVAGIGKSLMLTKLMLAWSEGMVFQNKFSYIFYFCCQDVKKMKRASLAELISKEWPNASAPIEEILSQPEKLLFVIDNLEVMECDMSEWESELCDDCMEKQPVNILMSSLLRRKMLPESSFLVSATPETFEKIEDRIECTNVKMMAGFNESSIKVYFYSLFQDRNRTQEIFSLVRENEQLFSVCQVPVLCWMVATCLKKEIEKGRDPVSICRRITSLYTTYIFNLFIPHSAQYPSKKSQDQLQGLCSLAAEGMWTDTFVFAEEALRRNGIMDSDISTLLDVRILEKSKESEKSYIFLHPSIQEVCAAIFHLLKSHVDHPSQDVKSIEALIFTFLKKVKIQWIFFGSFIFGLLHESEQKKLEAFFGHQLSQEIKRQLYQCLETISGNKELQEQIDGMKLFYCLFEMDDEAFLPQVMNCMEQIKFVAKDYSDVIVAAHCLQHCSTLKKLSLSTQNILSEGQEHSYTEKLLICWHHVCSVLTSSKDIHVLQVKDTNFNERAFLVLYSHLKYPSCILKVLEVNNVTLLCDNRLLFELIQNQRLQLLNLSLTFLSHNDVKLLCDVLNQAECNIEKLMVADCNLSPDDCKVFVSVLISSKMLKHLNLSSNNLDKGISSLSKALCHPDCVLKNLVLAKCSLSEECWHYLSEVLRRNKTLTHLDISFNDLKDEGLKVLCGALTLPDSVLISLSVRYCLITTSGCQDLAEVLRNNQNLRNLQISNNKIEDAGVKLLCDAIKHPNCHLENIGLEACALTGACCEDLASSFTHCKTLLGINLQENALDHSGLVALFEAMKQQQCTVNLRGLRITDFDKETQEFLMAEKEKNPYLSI
Nature of the assay: Inhibition of NLRP4 inflammasome in mouse J774.A1 cells assessed as reduction in LPS/flagellin induced IL-1beta level at 10 uM pretreated with LPS for 1 hr followed by flagellin addition and measured after 6 hrs by ELISA. The settings on record: time 7.0 hrs. A general note: An ELISA detects its analyte on a solid surface through an enzyme-linked reagent.

The chains behind the UniProt entries cited, without tags or fusion partners.
UniProt Q8R4B8, whole entry: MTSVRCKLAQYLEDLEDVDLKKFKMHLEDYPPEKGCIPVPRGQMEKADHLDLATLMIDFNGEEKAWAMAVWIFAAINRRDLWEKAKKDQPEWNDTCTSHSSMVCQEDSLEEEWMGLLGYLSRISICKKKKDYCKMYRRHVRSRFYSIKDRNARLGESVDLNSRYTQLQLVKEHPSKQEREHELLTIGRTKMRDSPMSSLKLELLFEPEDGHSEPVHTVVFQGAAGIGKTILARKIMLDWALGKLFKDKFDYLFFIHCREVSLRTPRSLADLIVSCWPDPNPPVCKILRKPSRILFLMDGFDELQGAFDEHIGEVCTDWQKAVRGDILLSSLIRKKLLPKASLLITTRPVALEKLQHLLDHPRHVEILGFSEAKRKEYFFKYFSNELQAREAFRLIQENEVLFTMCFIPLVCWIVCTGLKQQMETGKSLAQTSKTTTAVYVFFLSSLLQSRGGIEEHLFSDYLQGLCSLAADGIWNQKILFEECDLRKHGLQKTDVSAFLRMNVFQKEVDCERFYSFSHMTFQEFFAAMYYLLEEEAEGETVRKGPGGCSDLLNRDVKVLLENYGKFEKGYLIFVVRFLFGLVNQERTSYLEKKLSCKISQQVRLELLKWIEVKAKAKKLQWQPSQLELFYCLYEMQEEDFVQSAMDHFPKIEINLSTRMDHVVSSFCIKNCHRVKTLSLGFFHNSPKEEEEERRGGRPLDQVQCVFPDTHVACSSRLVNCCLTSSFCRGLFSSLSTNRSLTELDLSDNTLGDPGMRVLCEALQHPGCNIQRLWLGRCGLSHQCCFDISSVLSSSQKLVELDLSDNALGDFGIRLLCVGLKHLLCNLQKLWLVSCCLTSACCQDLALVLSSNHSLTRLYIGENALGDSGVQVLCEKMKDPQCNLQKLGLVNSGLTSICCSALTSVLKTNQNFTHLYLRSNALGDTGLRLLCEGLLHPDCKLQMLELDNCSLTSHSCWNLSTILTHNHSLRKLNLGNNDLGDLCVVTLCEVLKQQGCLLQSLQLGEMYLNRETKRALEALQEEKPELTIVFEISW

Assay [2] deals with NACHT, LRR and PYD domains-containing protein 3 (Mus musculus) (UniProt Q8R4B8). Nature of the assay: Inhibition of NLRP3 inflammasome in mouse J774.A1 cells assessed as reduction in LPS/ATP induced IL-1beta level pretreated with LPS for 4.5 hrs prior to compound addition for 2.5 hrs followed by ATP addition for 30 mins by Western blotting analysis. The note with it: dose 3-30 µM, time 7.5 hrs.

For assay [3] the target is unchanged. Nature of the assay: Inhibition of NLRP3 inflammasome in mouse J774.A1 cells assessed as reduction in LPS/ATP induced caspase-1 p20 level pretreated with LPS for 4.5 hrs prior to compound addition for 2.5 hrs followed by ATP addition for 30 mins by Western blotting analysis. The note with it: dose 3-30 µM, time 7.5 hrs. (In general: Immunoblotting shows a protein as a band on a membrane.)

Active and inactive are the calls of the source. The rule behind the calls is not given here.

Consider `CCC(=O)Nc1ccc(-c2ccccc2N(Cc2cc(Cl)ccc2OCCOC)C(=O)c2ccc(F)cc2)cc1`, for which the inhibition entry in assay [1] was “inactive”. In addition, the inhibition entry in assay [2] and in assay [3] was “Dose-Dependent Effect” throughout.

The values above are taken from ChEMBL document CHEMBL6127080, “Design, synthesis and biological evaluation of novel diphenylamine analogues as NLRP3 inflammasome inhibitors” (Bioorg Med Chem, 2024).
